# Measurements from publication PMC7897990, “TriTOX: A novel Trichomonas vaginalis assay platform for high-throughput screening of compound libraries” (International Journal for Parasitology: Drugs and Drug …, 2021).
# Key:
# [1] = test system: nontumorigenic neonatal foreskin fibroblast (NFF) cell line
# [2] = test system: Trichomonas vaginalis G3 trophozoites; conditions: HTS, parasite screen at 1 µg/mL, replicate 2, raw absorbance
SMILES,NFF_Activity [1],T.vaginalis_Absorbance_Rep2 [2]
O=C(O)c1cccc(C(=O)O)n1 [Dipicolinic acid],I (key: active (A) compounds having >25% inhibitory activity; otherwise these were reported as inactive (I)),–
C[C@@H](O)[C@H]1C(=O)N2C(C(=O)O)=C(S[C@@H]3CN[C@H](CNS(N)(=O)=O)C3)[C@H](C)[C@H]12 [Doripenem],–,0.835
